Test results reported in patent US20260176253A1 (priority 2021, published 2026).

Tested on: 5HT2A sensor
Format: cell-based

CCN(CC)C(=O)N[C@H]1C=C2c3cccc4[nH]cc(c34)C[C@H]2N(C)C1 [LIS, lisuride]
competition with 5-HT in the 5HT2A sensor assay in antagonist mode: compete off 5-HT
